Measurements reported in patent US20090143279A1 (priority 2007, published 2009).

Assays:
Details in all cases: composite Z-score vs DMSO; Conc 20 μM
reactive oxygen species = system: reactive oxygen species
[1] = system: mitochondrial membrane potential
OXPHOS gene expression = system: OXPHOS gene expression
nuOXPHOS transcripts = system: nuOXPHOS transcripts
C2C12 myotubes = system: C2C12 myotubes
mtOXPHOS transcripts = system: mtOXPHOS transcripts
[2] = system: cellular dehydrogenase activity
cytochrome c = system: cytochrome c

Q: Which ROS (reactive oxygen species) does the source give for CC(C)C[C@H](NC(=O)[C@@H]1CCCN1C(=O)[C@@H](N)C(C)C)C(=O)O [diprotin B] here?
A: 0.689

Q: And the ΔΨm [1]?
A: 0.153

Q: What about the GE-HTS (OXPHOS gene expression) of the same compound?
A: −0.522

Q: And the nucOX (nuOXPHOS transcripts)?
A: −0.682

Q: What about the Viability (C2C12 myotubes) of the same compound?
A: −0.639

Q: And the mitoOX (mtOXPHOS transcripts)?
A: −0.126

Q: What about the MTT [2] of the same compound?
A: −0.589

Q: What about the cyt c (cytochrome c) of the same compound?
A: −1.537
